# Measured affinities in a library of Ab-91 heavy chain variants

The measurements come from Engelhart et al. 2022 (doi:10.1038/s41597-022-01779-4) through the FLAb antibody collection.

The target is the same throughout: PDVDLGDISGINAS, from the HR2 region of SARS-CoV-2 spike.

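AAYL51 was designed without a model: most single CDR substitutions and a random sample of double and triple ones. AlphaSeq pools MATa yeast showing the antibodies with MATalpha yeast showing the peptide. Mating (16 h, 30 °C) was followed by selection of diploids and sequencing of their barcodes. Each replicate has its own calibration line, from reference interactions of the BCL2 family. There are three technical replicates.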

Ab-91 is the parent antibody, in scFv form: VL, then a 15-residue (Gly4Ser)3 linker, then VH. The light chain is unchanged in all variants.
VL: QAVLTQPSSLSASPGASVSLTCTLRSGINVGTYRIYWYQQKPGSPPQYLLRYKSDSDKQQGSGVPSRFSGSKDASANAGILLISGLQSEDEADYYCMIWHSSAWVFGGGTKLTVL
VH: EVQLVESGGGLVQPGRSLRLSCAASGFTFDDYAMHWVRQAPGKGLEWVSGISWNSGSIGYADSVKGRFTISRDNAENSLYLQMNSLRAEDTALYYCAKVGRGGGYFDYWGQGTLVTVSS

Variants are written as CDR1, CDR2 and CDR3 of the heavy chain (limits as in the source). Parent: GFTFDDYAMH, GISWNSGSIGYADSVK, VGRGGGYFDY. Values are log10 of the apparent Kd in nM; lower means stronger binding. A mean of the replicates is given; it leaves out those without a signal. A pair that was not seen in that replicate is written "nd"; this usually means weak binding, but a binder can also be missed. For reference, the parent read 1.86 as the reference entry and 0.88 as a member of this library.

log10 Kd (nM) by replicate,"log10 Kd (nM), mean",empty controls,CDR-H1,CDR-H2,CDR-H3
3.84 / 3.05 / 2.81,3.23,2 of 9 (4.36),GFSFDDYAMH,GISWNSGSIGYADSVK,VGFGGGYFDY
5.30 / nd / 4.59,4.95,0 of 9,GFTCDDYAMH,GISWNSGSIGYADSVK,VVRGGWYFDY
nd / nd / nd,nd,0 of 9,GFTFDDYCMH,GISWNSGSIGYADSVK,VGRGGGYSKY
nd / 4.93 / nd,4.93,6 of 9 (5.34),GFTFDDAAMH,GISWNSGSIGYADSVK,VGRGGGYPTY
nd / nd / nd,nd,2 of 9 (3.56),GFTFDDYAMH,GLSWNSGSHGYADSVK,VTRGGGYFDY
nd / nd / nd,nd,0 of 9,GFTFDDYAQH,GILWNSGSIGYADSVK,VGRGAGYFDY
1.34 / 1.21 / 0.69,1.08,1 of 9 (4.40),GFTFDDHAMH,GISWNSGSSGYADSVK,VGRGGGYFDY
4.43 / nd / nd,4.43,1 of 9 (3.43),GFTFDDYAMH,GISWNSGSTTYADSGK,VGRGGGYFDY
4.79 / nd / 4.76,4.78,2 of 9 (4.40),GFTFDDYAMH,GISWNSGSIGYGDSVK,VYHGGGYFDY
nd / nd / nd,nd,3 of 9 (3.97),GFTFDDYAQH,GISHNSGSIGYADSVK,VGYGGGYFDY
nd / nd / nd,nd,1 of 9 (2.91),GFTFDDYAMH,GISWNSISDGYADSVK,VGRGGGYFDY
4.12 / nd / nd,4.12,0 of 9,GFTFDDYAMH,GISWNSISIGYAKSVK,VGRGGGYFGY
nd / nd / nd,nd,0 of 9,GFTFDDYAWH,GISWNSGSIGSADSVK,VNRGGGYFDY
5.71 / 5.54 / nd,5.63,3 of 9 (5.00),GFTFDDYAMH,GQSWNSGRIGYADPVK,VGRGGGYFDY
nd / nd / 4.73,4.73,2 of 9 (4.22),GFTFDDYAMH,GIVWNSGSIGYADSVK,VGRKGMYFDY
nd / nd / 3.81,3.81,0 of 9,GFTFDDYAMH,GISWNSGSIGYADSDK,VADGGGYFDY
nd / nd / nd,nd,1 of 9 (4.76),GFTFDDYWMH,GISWYSGSIGYADSVK,VGRGGGYFDY
nd / 4.47 / nd,4.47,3 of 9 (5.38),GFTPDDYAMH,GISWNSGSIGYADSVK,YGRGNGYFDY
5.82 / 5.40 / 5.25,5.49,7 of 9 (5.23),GFTFDDYAMY,GISDNSRSIGYADSVK,VGRGGGYFDY
nd / nd / nd,nd,1 of 9 (2.85),GFTFWDYAMW,GISWNSGSIGYADSVK,VGRGGGYVDY
2.40 / 2.42 / 1.61,2.14,3 of 9 (3.66),GFKFDDYAMH,GISWDSGSIGYADSVK,VGRGGGNFDY
nd / nd / 3.91,3.91,1 of 9 (3.52),GFTFDDYAMH,GISWNSGSIGYADSVK,VCRGGYYFDM
nd / nd / nd,nd,1 of 9 (2.74),GFTFDDYAMH,GISWNSGSIGVADSVK,VGRGTRYFDY
nd / nd / nd,nd,0 of 9,GFTFDDYAMH,GISWNSGCIGYGDSVK,VSRGGGYFDY
nd / nd / nd,nd,0 of 9,GFTFDDYAMH,NISWNSGSIGYADSVK,VGRGGHYCDY
nd / nd / nd,nd,1 of 9 (3.20),GFTFDDYAMH,NISWNSGSIGYADSTL,VGRGGGYFDY
nd / nd / nd,nd,3 of 9 (4.13),GFTFDDYAMH,YISWNQGSIGYADSVK,VGRGGGYFDY
nd / nd / nd,nd,1 of 9 (5.22),GFTFDDYAMH,WISWNSGSIIYADSVK,VGRGGGYFDY
nd / nd / nd,nd,0 of 9,GFRFDDYAMH,GISWNSGSIGYADSAK,VVRGGGYFDY
nd / nd / nd,nd,0 of 9,GFTFDDYAMH,GISWNSGSIGYADSVW,VGRCGGTFDY
nd / nd / nd,nd,1 of 9 (3.02),GFTFDDYAMH,TISWNSGSICYADSVK,DGRGGGYFDY
nd / nd / nd,nd,0 of 9,GFTFDDYAMH,GISPNSGSIGYADSVK,VGRGGGYMNY
nd / nd / nd,nd,1 of 9 (4.63),GFTFDDYAMH,GISWNSGSTGYYDVVK,VGRGGGYFDY
3.96 / 4.14 / 4.63,4.24,5 of 9 (5.34),GITFDDYAMH,GISWNSGSIGYNDSVK,VGRGGGYFDQ
3.39 / 5.60 / nd,4.50,1 of 9 (3.36),GFTFNDYAMH,GISINSGSIYYADSVK,VGRGGGYFDY
4.25 / 6.08 / nd,5.17,7 of 9 (4.83),GFTFDDYAMH,GISWISGSIGYLDSVK,VGRGGGYFNY
4.20 / nd / 5.10,4.65,6 of 9 (4.80),GYTFDDYAMH,GISWPSGSIGWADSVK,VGRGGGYFDY
4.00 / 6.16 / nd,5.08,1 of 9 (4.28),GFTFDDYAMH,GIEWNSGSIGYADSVK,IGRGGGYFYY
5.37 / 4.29 / 4.42,4.69,6 of 9 (4.78),GFTFDDYAMH,GISENSGSIGYADSVF,VGRGGGMFDY
5.51 / nd / nd,5.51,2 of 9 (4.69),GFTFEDYAMH,GISWNSGLIGYADSVK,DGRGGGYFDY
nd / nd / nd,nd,0 of 9,GFTFDHYAMH,GISWNSGSIGYADSVK,VGRGRGEFDY
4.27 / 5.29 / nd,4.78,6 of 9 (4.10),GFTFDDYAMH,GISWNKGSIGYADSVK,VGRGRGYFDS
5.38 / 4.34 / 4.56,4.76,3 of 9 (4.50),GFTFDDYAMH,GISSMSGSIGYADSNK,VGRGGGYFDY
nd / nd / nd,nd,0 of 9,PFTFDDYAMH,GISWNSGIIGYADSVA,VGRGGGYFDY
nd / nd / nd,nd,0 of 9,QFTFDDYAMH,GISWNSGSIGYAGSVK,VGRGGGDFDY
5.47 / nd / 4.80,5.13,2 of 9 (4.72),GFTFDSYAMH,GISLNSGSVGYADSVK,VGRGGGYFDY
4.77 / nd / 4.44,4.61,3 of 9 (4.61),GFTFDDYAMH,GTCWNSGSIGYAESVK,VGRGGGYFDY
nd / nd / nd,nd,0 of 9,GFTFDDYAMH,TISWNSGSIDYAKSVK,VGRGGGYFDY
nd / nd / nd,nd,0 of 9,GFYFDDYAMQ,GISHNSGSIGYADSVK,VGRGGGYFDY
6.42 / 5.40 / 5.33,5.72,5 of 9 (5.02),GRTFDDYAMH,GISWNSGSIGYAGSVG,VGRGGGYFDY
nd / nd / nd,nd,4 of 9 (4.67),GFTFDDYAFH,GIRWNSGSIGYADSVK,VGYGGGYFDY
nd / nd / nd,nd,1 of 9 (4.09),GFTFDDYAMH,GISWNDISIGYADSVK,VGRGGLYFDY

The first 7 entries again:

{"CDR-H1": "GFSFDDYAMH", "CDR-H2": "GISWNSGSIGYADSVK", "CDR-H3": "VGFGGGYFDY", "log10 Kd (nM) by replicate": "3.84 / 3.05 / 2.81", "log10 Kd (nM), mean": "3.23", "empty controls": "2 of 9 (4.36)"}
{"CDR-H1": "GFTCDDYAMH", "CDR-H2": "GISWNSGSIGYADSVK", "CDR-H3": "VVRGGWYFDY", "log10 Kd (nM) by replicate": "5.30 / nd / 4.59", "log10 Kd (nM), mean": "4.95", "empty controls": "0 of 9"}
{"CDR-H1": "GFTFDDYCMH", "CDR-H2": "GISWNSGSIGYADSVK", "CDR-H3": "VGRGGGYSKY", "log10 Kd (nM) by replicate": "nd / nd / nd", "log10 Kd (nM), mean": "nd", "empty controls": "0 of 9"}
{"CDR-H1": "GFTFDDAAMH", "CDR-H2": "GISWNSGSIGYADSVK", "CDR-H3": "VGRGGGYPTY", "log10 Kd (nM) by replicate": "nd / 4.93 / nd", "log10 Kd (nM), mean": "4.93", "empty controls": "6 of 9 (5.34)"}
{"CDR-H1": "GFTFDDYAMH", "CDR-H2": "GLSWNSGSHGYADSVK", "CDR-H3": "VTRGGGYFDY", "log10 Kd (nM) by replicate": "nd / nd / nd", "log10 Kd (nM), mean": "nd", "empty controls": "2 of 9 (3.56)"}
{"CDR-H1": "GFTFDDYAQH", "CDR-H2": "GILWNSGSIGYADSVK", "CDR-H3": "VGRGAGYFDY", "log10 Kd (nM) by replicate": "nd / nd / nd", "log10 Kd (nM), mean": "nd", "empty controls": "0 of 9"}
{"CDR-H1": "GFTFDDHAMH", "CDR-H2": "GISWNSGSSGYADSVK", "CDR-H3": "VGRGGGYFDY", "log10 Kd (nM) by replicate": "1.34 / 1.21 / 0.69", "log10 Kd (nM), mean": "1.08", "empty controls": "1 of 9 (4.40)"}

Empty control strains, which show no peptide, gave a signal in 21% of pairings with library AAYL51; the median was 4.54 and 95% of these signals were weaker than 3.26. No background was subtracted. Also given: how often the same scFv was detected with the empty control strains, with their mean in brackets.